Measurements taken from patent US9611262B2, “Substituted 2-azabicycles and their use as orexin receptor modulators” (JANSSEN PHARMACEUTICA NV, priority 2014, dated 2017).

By UniProt entry, the sequences of proteins in these tests, tags left out.
UniProt O43613, whole entry: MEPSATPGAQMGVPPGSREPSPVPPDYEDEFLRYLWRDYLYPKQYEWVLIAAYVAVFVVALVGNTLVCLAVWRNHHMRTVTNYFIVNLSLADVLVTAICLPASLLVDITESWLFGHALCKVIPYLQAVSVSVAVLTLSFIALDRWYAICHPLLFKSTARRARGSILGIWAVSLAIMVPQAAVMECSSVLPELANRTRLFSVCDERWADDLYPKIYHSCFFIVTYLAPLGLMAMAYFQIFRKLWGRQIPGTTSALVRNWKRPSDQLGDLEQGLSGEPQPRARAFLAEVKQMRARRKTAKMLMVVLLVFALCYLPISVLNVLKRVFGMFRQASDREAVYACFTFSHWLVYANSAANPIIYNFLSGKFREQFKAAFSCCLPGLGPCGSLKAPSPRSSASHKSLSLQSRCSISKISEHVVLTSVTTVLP

Columns and labels:
human orexin 1 receptor = human orexin 1 receptor (Homo sapiens (Human), UniProt O43613); assay: Human orexin 1 receptor radioligand binding (competitive); settings: CHO cells stably expressing human orexin 1 receptor; 4 nM radioligand; averages of 2-20 runs; read-out: hOX1 Ki
Procedure: (§1) The in vitro affinity of the compounds of the invention for the rat/human orexin 1 and human orexin 2 receptors was determined by competitive radioligand binding using [^3H](1-(5-(2-fluoro-phenyl)-2-methyl-thiazol-4-yl)-1-((S)-2-(5-phenyl-(1,3,4)oxadiazol-2-ylmethyl)-pyrrolidin-1-yl)-methanone) (Langmead et al., 2004) and [^3H]EMPA (n-ethyl-2[96-methoxy-pyridin-3-yl)-(toluene-2-sulfonyl)-amino]-N-pyridin-3-ylmethyl acetamide), respectively (Langmead et al., 2004, British Journal of Pharmacology 141:340-346; Malherbe et al., 2004, British Journal of Pharmacology 156:1326-41).
(§2) Data are analyzed using pc-Sandy macro and graphed on Graphpad Prism 5. For analysis, each concentration point is averaged from triplicate values and the averaged values are plotted on Graphpad Prism. The IC50 was determined by applying the following equation (GraphPad Prism 5.0, San Diego) for one site competition where X=log (concentration) and Y=specific binding. Top denotes the total [^3H]— (1-(5-(2-fluoro-phenyl)-2-methyl-thiazol-4-yl)-1-((S)-2-(5-phenyl-(1,3,4)oxadiazol-2-ylmethyl)-pyrrolidin-1-yl)-methanone) binding, bottom denotes the nonspecific [^3H]— (1-(5-(2-fluoro-phenyl)-2-methyl-thiazol-4-yl)-1-((S)-2-(5-phenyl-(1,3,4)oxadiazol-2-ylmethyl)-pyrrolidin-1-yl)-methanone) binding. Graphpad Prism calculates Ki value from IC50 and the pre-determined Kd values for [^3H]— (1-(5-(2-fluoro-phenyl)-2-methyl-thiazol-4-yl)-1-((S)-2-(5-phenyl-(1,3,4)oxadiazol-2-ylmethyl)-pyrrolidin-1-yl)-methanone) and [^3H]-EMPA. The Ki for each compound is then uploaded into 3DX. Each run comprises individual compounds in triplicate. The data in Table 1 and Table 2 represent averages from between 2-20 runs
(§3) Rat and Human Orexin 1 Receptor Radioligand Binding Studies
(§4) Human Embryonic Kidney 293 cells (HEK293) stably expressing rat orexin 1 receptor (Genebank accession number NM_001525) or Chinese ovary cells (CHO) stably expressing human orexin 1 receptor (Genebank accession number […]) were grown to confluency in DMEM (Hyclone, cat # SH30022), 10% FBS, 1× Pen/Strep, 1× sodium pyruvate, 10 mM HEPES, 600 μg/mL G418 and DMEM/F12 (Gibco, Cat #11039), 10% FBS, 1× Pen/Strep, 600 μg/mL G418 media, respectively on 150 cm^2 tissue culture plates, washed with 5 mM EDTA in PBS (HyClone Dulbecco's Phosphate Buffered Saline 1× with Calcium and Magnesium, Cat # SH30264.01, hereafter referred to simply as PBS) and scraped into 50 ml tubes. After centrifugation (2K×G, 5 min at 4° C.), the supernatant was aspirated and the pellets frozen and stored at −80° C. Cells were resuspended in PBS in the presence of 1 tablet of protease inhibitor cocktail (Roche, Cat. #11836145001) per 50 mL. […] Competition binding experiments in 96 well polypropylene plates were performed using [^3H]— (1-(5-(2-fluoro-phenyl)-2-methyl-thiazol-4-yl)-1-((S)-2-(5-phenyl-(1,3,4)oxadiazol-2-ylmethyl)-pyrrolidin-1-yl)-methanone) (Moraveck Corporation, specific activity=35.3 Ci/mmol), diluted to a 10 nM concentration in PBS (4 nM final). Compounds were solubilized in 100% DMSO (Acros Organics, Cat. #61042-1000) and tested over a range of 7 concentrations (from 0.1 nM to 10 μM). The final concentration of DMSO in the reactions is equal to or less than 0.1%. Total and nonspecific binding was determined in the absence and presence of 10 μM almorexant. The total volume of each reaction is 200 μL (20 μL of diluted compounds, 80 μL of [^3H]— (1-(5-(2-fluoro-phenyl)-2-methyl-thiazol-4-yl)-1-((S)-2-(5-phenyl-(1,3,4)oxadiazol-2-ylmethyl)-pyrrolidin-1-yl)-methanone) diluted in PBS and 100 μL of the cell suspension). Reactions were run for 60 min at room temperature and terminated by filtration through GF/C filter plates (PerkinElmer, Cat. #6005174) presoaked in 0.3% polyethylenimine using the cell harvester (PerkinElmer Filtermate). The plates were washed 3 times by aspirating 30 ml PBS through the plates. Plates were dried in 55° C. oven for 60 min, scintillation fluid was added, and the radioactivity was counted on a Topcount (Packard). […]

rat orexin 1 receptor = rat orexin 1 receptor (Rattus norvegicus, UniProt P56718); assay: Rat orexin 1 receptor radioligand binding (competitive); settings: HEK293 cells stably expressing rat orexin 1 receptor; 4 nM radioligand; averages of 2-20 runs; read-out: rOX1 Ki
Procedure: as §1, §2, §3, §4

Row | SMILES | Ki (human orexin 1 receptor) | Ki (rat orexin 1 receptor)
1 | CC1C2CC(Oc3ccc(C(F)(F)F)cn3)C(C2)N1C(=O)c1ccccc1-n1nccn1 (single isomer, unassigned) [Example 21A, (2-(2H-1,2,3-triazol-2-yl)phenyl)((1R*,3S*,4S*,6S*)-3-methyl-6-((5-(trifluoromethyl)pyridin-2-yl)oxy)-2-azabicyclo[2.2.1]heptan-2-yl)methanone] | 259 nM | 
2 | Cc1ccc(-n2nccn2)c(C(=O)N2C(C)C3CC(Oc4ccc(C(F)(F)F)cn4)C2C3)n1 (single isomer, unassigned) [Example 22A, (6-methyl-3-(2H-1,2,3-triazol-2-yl)pyridin-2-yl)((1R*,3S*,4S*,6S*)-3-methyl-6-((5-(trifluoromethyl)pyridin-2-yl)oxy)-2-azabicyclo[2.2.1]heptan-2-yl)methanone] |  | 1240 nM
3 | [2H]C([2H])([2H])[C@]1([2H])[C@H]2C[C@@H](Oc3ccc(C(F)(F)F)cn3)[C@H](C2)N1C(=O)c1ncc(C)cc1-n1nccn1 [Example 166, [(1R,2R,4S,5R)-2-deuterio-2-(trideuteriomethyl)-5-[[5-(trifluoromethyl)-2-pyridyl]oxy]-3-azabicyclo[2.2.1]heptan-3-yl]-[5-methyl-3-(triazol-2-yl)-2-pyridyl]methanone] |  | 4 nM
4 | CC1C2CC(Oc3ccc(C(F)(F)F)cn3)C(C2)N1C(=O)c1ccccc1-n1nccn1 (single isomer, unassigned) [Example 2B, (2-(2H-1,2,3-triazol-2-yl)phenyl)((1S*,3S*,4R*,6R*)-3-methyl-6-((5-(trifluoromethyl)pyridin-2-yl)oxy)-2-azabicyclo[2.2.1]heptan-2-yl)methanone] | 54 nM | 
5 | Cc1ccc(-n2nccn2)c(C(=O)N2C(C)C3CC(Oc4ccc(C(F)(F)F)cn4)C2C3)n1 (single isomer, unassigned) [Example 3B, (6-methyl-3-(2H-1,2,3-triazol-2-yl)pyridin-2-yl)((1S*,3S*,4R*,6R*)-3-methyl-6-((5-(trifluoromethyl)pyridin-2-yl)oxy)-2-azabicyclo[2.2.1]heptan-2-yl)methanone] |  | 351 nM
6 | [2H]C([2H])([2H])[C@]1([2H])[C@H]2C[C@@H](Oc3ccc(C(F)(F)F)cn3)[C@H](C2)N1C(=O)c1cc(F)ccc1-c1ncccn1 [Example 167, [(1R,2R,4S,5R)-2-deuterio-2-(trideuteriomethyl)-5-[[5-(trifluoromethyl)-2-pyridyl]oxy]-3-azabicyclo[2.2.1]heptan-3-yl]-(5-fluoro-2-pyrimidin-2-yl-phenyl)methanone] |  | 4.8 nM
7 | CC1C2CC(Oc3ccc(C(F)(F)F)cn3)C(C2)N1C(=O)c1ccccc1-n1nccn1 (single isomer, unassigned) [Example 21, (R/S)-(2-(2H-1,2,3-triazol-2-yl)phenyl)(3-methyl-6-((5-(trifluoromethyl)pyridin-2-yl)oxy)-2-azabicyclo[2.2.1]heptan-2-yl)methanone] | 4 nM | 
8 | CC1C2CC(Oc3ccc(C(F)(F)F)cn3)C(C2)N1C(=O)c1ccc(F)cc1-c1ncccn1 (single isomer, unassigned) [Example 17A, (4-fluoro-2-(pyrimidin-2-yl)phenyl)((1R*,3S*,4S*,6S*)-3-methyl-6-((5-(trifluoromethyl)pyridin-2-yl)oxy)-2-azabicyclo[2.2.1]heptan-2-yl)methanone] |  | 339 nM
9 | C[C@@H]1[C@H]2C[C@@H](Oc3ccc(C(F)(F)F)cn3)[C@H](C2)N1C(=O)c1c(F)cccc1-n1nccn1 (relative stereo) [Example 30, (2-fluoro-6-(2H-1,2,3-triazol-2-yl)phenyl)((1S*,3R*,4R*,6R*)-3-methyl-6-((5-(trifluoromethyl)pyridin-2-yl)oxy)-2-azabicyclo[2.2.1]heptan-2-yl)methanone] | 6 nM | 
10 | C[C@@H]1[C@H]2C[C@@H](Oc3cnc(C(F)(F)F)cn3)[C@H](C2)N1C(=O)c1ccc(F)cc1-n1nccn1 (relative stereo) [Example 53, (4-fluoro-2-(2H-1,2,3-triazol-2-yl)phenyl)((1S*,3R*,4R*,6R*)-3-methyl-6-((5-(trifluoromethyl)pyrazin-2-yl)oxy)-2-azabicyclo[2.2.1]heptan-2-yl)methanone] | 31 nM | 
11 | CC1C2CC(Nc3cnc(C(F)(F)F)cn3)C(C2)N1C(=O)c1ccccc1-n1nccn1 (single isomer, unassigned) [Example 5A, (2-(2H-1,2,3-triazol-2-yl)phenyl)((1R*,3R*,4R*,6S*)-3-methyl-6-((5-(trifluoromethyl)pyrazin-2-yl)amino)-2-azabicyclo[2.2.1]heptan-2-yl)methanone] |  | 5100 nM
12 | O=C(c1ccccc1-n1nccn1)N1C(CF)C2CC(Oc3ccc(C(F)(F)F)cn3)C1C2 (racemic) [Example 73, (R/S)-(2-(2H-1,2,3-triazol-2-yl)phenyl)(3-(fluoromethyl)-6-((5-(trifluoromethyl)pyridin-2-yl)oxy)-2-azabicyclo[2.2.1]heptan-2-yl)methanone] | 21 nM | 
13 | CC1C2CC(Oc3ccc(C(F)(F)F)cn3)C(C2)N1C(=O)c1ccccc1-n1nccn1 (single isomer, unassigned) [Example 2, (R/S)-(2-(2H-1,2,3-triazol-2-yl)phenyl)(3-methyl-6-((5-(trifluoromethyl)pyridin-2-yl)oxy)-2-azabicyclo[2.2.1]heptan-2-yl)methanone] | 22 nM | 
14 | Cc1ccc(-c2ncccn2)c(C(=O)N2C(C)C3CC(Oc4ccc(C(F)(F)F)cn4)C2C3)n1 (single isomer, unassigned) [Example 16A, (6-methyl-3-(pyrimidin-2-yl)pyridin-2-yl)((1R*,3S*,4S*,6S*)-3-methyl-6-((5-(trifluoromethyl)pyridin-2-yl)oxy)-2-azabicyclo[2.2.1]heptan-2-yl)methanone] |  | 1740 nM
15 | [2H]C1([2H])[C@H]2C[C@@H]([C@@H]1Oc1ccc(C(F)(F)F)cn1)N(C(=O)c1ccccc1-n1nccn1)[C@@H]2C [Example 201, [(1R,3R,4S,6R)-2,2-dideuterio-6-methyl-3-[[5-(trifluoromethyl)-2-pyridyl]oxy]-5-azabicyclo[2.2.1]heptan-5-yl]-[2-(triazol-2-yl)phenyl]methanone] | 4 nM | 
16 | CC1C2CC(Oc3ccc(C(F)(F)F)cn3)C(C2)N1C(=O)c1ccccc1-n1nccn1 (single isomer, unassigned) [Example 21B, (2-(2H-1,2,3-triazol-2-yl)phenyl)((1S*,3R*,4R*,6R*)-3-methyl-6-((5-(trifluoromethyl)pyridin-2-yl)oxy)-2-azabicyclo[2.2.1]heptan-2-yl)methanone] | 3 nM | 
17 | Cc1ccc(-n2nccn2)c(C(=O)N2C(C)C3CC(Nc4cnc(C(F)(F)F)cn4)C2C3)n1 (single isomer, unassigned) [Example 6A, (6-methyl-3-(2H-1,2,3-triazol-2-yl)pyridin-2-yl)((1R*,3R*,4R*,6S*)-3-methyl-6-((5-(trifluoromethyl)pyrazin-2-yl)amino)-2-azabicyclo[2.2.1]heptan-2-yl)methanone] |  | 6300 nM
